Columns and labels:
[1] = Competitive inhibition of rat neutrophil elastase using varying levels of MeOSuc-AAPV-MCA as substrate measured at 60 mins interval for up to several hrs by Dixon plot analysis
[2] = target: T1, Neutrophil elastase (Mus musculus, UniProt Q3UP87); experiment: Competitive inhibition of mouse neutrophil elastase using varying levels of MeOSuc-AAPV-MCA as substrate measured at 60 mins interval for up to several hrs by Dixon plot analysis
T1 sequence (Q3UP87 whole entry): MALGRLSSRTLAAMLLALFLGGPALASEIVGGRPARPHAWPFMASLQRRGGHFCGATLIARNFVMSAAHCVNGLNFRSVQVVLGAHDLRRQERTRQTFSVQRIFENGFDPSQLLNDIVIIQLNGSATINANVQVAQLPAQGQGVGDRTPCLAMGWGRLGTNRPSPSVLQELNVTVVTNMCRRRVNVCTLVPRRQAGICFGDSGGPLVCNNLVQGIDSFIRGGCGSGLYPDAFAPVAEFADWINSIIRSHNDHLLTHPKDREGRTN

[3] = Inhibition of rat neutrophil elastase using MeOSuc-AAPV-MCA as substrate measured at 60 mins interval for up to several hrs by fluorescence assay
Method in brief: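 Rat neutrophil elastase was acid-extracted from homogenized rat lung and enriched by ammonium sulfate precipitation. […] Enzyme was routinely 0.8 nM for 60 min, or 0.08 nM over several hours for very potent inhibitors. Fluorescence was read at ex 395/em 460 nm, and IC50 was interpolated (N≥4).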

`CC(=O)C1=C(C)N(c2cccc(C(F)(F)F)c2)C(=O)N[C@@H]1c1ccc(C#N)nc1` [BAY-678] gave a Ki [1] of 600 nM, a Ki [2] of 700 nM and an IC50 [3] of 800 nM.

Source: ChEMBL document CHEMBL5653621, “Freezing the Bioactive Conformation to Boost Potency: The Identification of BAY 85-8501, a Selective and Potent Inhibitor of Human Neutrophil Elastase for Pulmonary Diseases” (ChemMedChem, 2015)
